{"source": "patent US20200308162A1", "about": "“DRUGS AND COMPOSITIONS FOR OCULAR DELIVERY” (Graybug Vision, Inc., priority 2017, published 2020)", "key": {"[1]": {"assay": "In vitro drug release kinetics of Timolol prodrug microparticles in PBS and 1% Tween 20 (pH 7.4) at 37° C.", "assay_type": "physicochemical", "description": "In vitro drug release kinetics were evaluated in a release medium composed of PBS and 1% Tween 20 (pH 7.4). Briefly, 10 mg of particles was suspended in 4 mL of the release medium The particle suspension was incubated on an orbital shaker at 150 rpm at 37° C. At various time points, 3 mL of release media was collected, and the suspension was replenished with 3 mL of fresh release media. Collected release samples were frozen and stored at −80° C. until analysis for drug content. The collected samples were filtered through a 0.2 μm syringe filter and analyzed by RP-HPLC. FIG. 17-FIG. 22 illustrate the total and parent Timolol release profile for the microparticles encapsulating bis-prodrugs of Timolol of Table 11."}, "[2]": {"assay": "Stability of Timolol prodrugs in PBS via HPLC", "assay_type": "physicochemical", "details": "PBS (100% PBS)", "description": "Each point on the graph is the retention time of Compound 50, parent Timolol, and 4 breakdown products at day 0, 1, 2, 3, 4, or 5 as measured via HPLC.\nThe stability of Compound 51 was measured in 100% serum (FIG. 27A), 50% serum and 50% PBS (FIG. 27B), and 100% PBS (FIG. 27C) via HPLC. Each point on the graph is the retention time of Compound 51, parent Timolol, and 4 breakdown products at day 0, 1, 2, 3, 4, or 5 as measured. […] The concentration of the breakdown product with a retention time of 5.454 minutes was higher than the concentration of parent Timolol (retention time=4.4 minutes).\nThe stability of Compound 52 was measured in PBS (FIG. 28) and the stability of Compound 53 was measured in PBS (FIG. 29)."}}, "note": "Entries after “also recorded” stand apart in the source; their conditions may differ.", "data": [{"substance": "Timolol-Bis-N,O-Glycolic acid-Acetyl-PLA (n = 4) [Compound 50]", "values": [{"measurement": "parent Timolol released relative to total release of prodrug and intermediates", "setting": "[1]; PBS and 1% Tween 20 (pH 7.4), 37° C.", "result": "primarily as native parent Timolol; also recorded: primarily the Timolol parent drug"}, {"measurement": "correlation between total drug release and parent Timolol release", "setting": "[1]; in vitro", "result": "high and correlates well and best correlation"}, {"measurement": "linear (4-month) drug release", "setting": "[1]; in vitro", "result": "exhibited linear drug release; also recorded: Linear 4-month drug release was only achieved with Compound 50; also recorded: only compound to consistently achieve linear 4-month drug release"}, {"measurement": "extent of linear release profile", "setting": "[1]; parent Timolol as primary compound released, FIG. 22", "result": "> 140", "unit": "days"}, {"measurement": "stability / breakdown into parent Timolol and breakdown products", "setting": "[2]", "result": "breaks down over the course of 5 days; also recorded: primarily breaks downs into the Timolol parent drug; also recorded: produced high concentrations of Timolol"}]}]}
